Among the data in PubChem BioAssay AID1645883 (National Center for Advancing Translational Sciences (NCATS), 2021) are max response values, retold here.

Sequences of proteins named here, by UniProt entry; tags and fusion partners are left off.
UniProt O95398, whole entry: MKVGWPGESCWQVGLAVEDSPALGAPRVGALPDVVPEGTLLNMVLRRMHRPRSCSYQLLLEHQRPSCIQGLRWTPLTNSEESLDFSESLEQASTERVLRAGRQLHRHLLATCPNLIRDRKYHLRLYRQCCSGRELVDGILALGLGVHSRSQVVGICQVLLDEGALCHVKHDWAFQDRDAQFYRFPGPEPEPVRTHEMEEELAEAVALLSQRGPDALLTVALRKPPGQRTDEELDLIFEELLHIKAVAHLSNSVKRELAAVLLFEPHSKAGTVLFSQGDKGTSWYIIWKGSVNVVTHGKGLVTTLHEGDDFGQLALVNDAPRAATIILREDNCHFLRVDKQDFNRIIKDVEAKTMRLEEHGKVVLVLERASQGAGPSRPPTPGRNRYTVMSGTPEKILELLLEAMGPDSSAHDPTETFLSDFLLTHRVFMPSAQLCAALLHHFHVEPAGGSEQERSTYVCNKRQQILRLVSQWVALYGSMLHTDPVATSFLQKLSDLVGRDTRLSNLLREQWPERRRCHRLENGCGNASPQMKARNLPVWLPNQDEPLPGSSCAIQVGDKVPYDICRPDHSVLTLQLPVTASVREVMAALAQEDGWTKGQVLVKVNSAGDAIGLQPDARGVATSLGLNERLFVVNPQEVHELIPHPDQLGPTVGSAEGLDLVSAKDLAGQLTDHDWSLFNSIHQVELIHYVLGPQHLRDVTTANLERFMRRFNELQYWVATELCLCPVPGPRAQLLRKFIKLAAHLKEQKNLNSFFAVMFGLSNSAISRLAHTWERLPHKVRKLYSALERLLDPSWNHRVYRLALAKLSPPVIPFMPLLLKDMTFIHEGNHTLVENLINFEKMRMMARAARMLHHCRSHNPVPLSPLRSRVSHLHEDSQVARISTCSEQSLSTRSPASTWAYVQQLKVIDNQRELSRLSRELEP

Only a part is listed here, and it is no random draw. Some tests of the compounds listed are not included; inactive here does not mean inactive elsewhere. Results filed as inconclusive are left out. Active and inactive are the calls of the source. The call rests on the fitted dose curve; in most records, active means well fitted activation curve with a large enough effect; inconclusive means small, poorly fitted or top-dose-only effect; inactive means no such curve, though single readings can be large or run the other way.
On the % scale 0 is the no-effect control and ±100 the full control effect.

This assay has as its target Rap guanine nucleotide exchange factor 3 (Homo sapiens) (UniProt O95398). The assay is described as follows: Validation qHTS for agonist of cAMP-regulated guanine nucleotide exchange factor 3 (EPAC1). Further: nearly all actives have a fitted effect of over 70% in size. The following applies: EPAC1 Rap1b BODIPY-GDP exchange, fluorescence; stronger effect = higher value; percent of cAMP control response. The source says: Assay Provider (PI): Xiaodong Cheng Ph.D.
The University of Texas Medical Branch, […], TX
In multi-cellular eukaryotic organisms, the effects of cAMP are transduced by two ubiquitously-expressed intracellular cAMP receptors, the classic protein kinase A/cAMP-dependent protein kinase (PKA/cAPK) and the more recently discovered exchange protein directly activated by cAMP/cAMP-regulated guanine nucleotide exchange factor (EPAC/cAMP-GEF). Both PKA and EPAC are ubiquitously expressed in all tissues, and an increase in intracellular cAMP levels will lead to the activation of both PKA and EPAC. […]
This qHTS will be used to screen the Molecular Libraries Small Molecule Repository (MLSMR) as a concentration-titration series using the NCGC unique quantitative screening (qHTS) platform to find activators for EPAC1. […] Activators are identified by monitoring the change in fluorescence signal as the exchanged free BODIPY-GDP has a reduced fluorescence compared to Rap1-bound BODIPY-GDP. […]
Briefly, three uL of reagents (100 nM EPAC1, 250 nM RAP1B-BODIPY-GDP, 50 uM GDP) were dispensed into a 1536-well Greiner black solid-bottom medium binding assay plate. […] The assay plates were read at 5 minute intervals for 30 minutes in the ViewLux plate reader using 480nm excitation and 540nm emission filters. […]
With `CN1CCCC(OC(=O)C(O)(c2ccccc2)c2ccccc2)C1` (stereo unspecified), the max response was inactive: -28.7%.
